How the values were obtained:
[1] = biological target: T1, HCV ORFs (Gal4-DB fusions) (Hepatitis C virus genotype 1b, UniProt Q9WMX2); assay type: binding, HCV genotype 1b, isolate con1; settings: HCV protein NS3 as bait; human protein as prey
T1 construct: expressed in transfected cells; host or cells: Saccharomyces cerevisiae MAV203 (IMAP1) / AH109 (IMAP2)

[2] = test system: HCV ORFs (Gal4-DB fusions); assay type: binding, HCV genotype 1b, isolate con1; settings: human protein listed by gene symbol; the value names the HCV protein it interacts with
[3] = biological target: T2, HCV proteins (Hepatitis C virus genotype 1b, UniProt Q9WMX2); assay: Validation by Y2H pairwise matrices; assay type: binding; settings: validation of interaction with HCV protein NS3;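 note: yeast two-hybrid pairwise tests of interactions first found in Y2H screens of HCV bait proteins against human cDNA libraries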
T2 construct: expressed in transfected cells
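Throughout, for IMAP Y2H IMAP1 (number of IST): yeast two-hybrid screens using HCV genotype 1b proteins fused to Gal4-DB as baits against prey cDNA libraries from human spleen and foetal brain, IMAP1 via transformation and IMAP2 via mating.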
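Throughout, for IMAP Y2H IMAP2 (number of IST): yeast two-hybrid screens using HCV genotype 1b proteins fused to Gal4-DB as baits against prey cDNA libraries from human spleen and foetal brain, IMAP1 via transformation and IMAP2 via mating.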
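Throughout, for Interaction with viral protein: yeast two-hybrid screens using HCV genotype 1b proteins fused to Gal4-DB as baits against prey cDNA libraries from human spleen and foetal brain, IMAP1 via transformation and IMAP2 via mating.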

Row | Substance | IMAP Y2H IMAP1 (number of IST) [1] | Interaction with viral protein [2] | Y2H matrices [3] | IMAP Y2H IMAP2 (number of IST) [1]
1 | FTH1 | 2 | NS3 | + | 
2 | B2M |  | NS3 |  | 1
